# Measured values: patent US20160326241A1
# How the values were obtained:
# [1] = molecular target: IL-17A/F heterodimer (human) (UniProt Q96PD4); test: SPR (Biacore), antibody captured by anti-human IgG, antigen in solution
# [2] = molecular target: human IL-17A/A homodimer (human) (UniProt Q16552); test: cell-based or functional assay
# [3] = molecular target: human IL-17A/A homodimer (human) (UniProt Q16552); test: SPR (Biacore), antibody captured by anti-human IgG, antigen in solution; apparent KD
Kd [1],"IC50 IL-8 [nM], RA-FLS, IL-17 treatment (10 ng/ml) [2]","IC50 [M], MMP-3 production in chondrocytes, IL-17 treatment [2]","IC50 [nM], IL-8 production in A375 cells, IL-17 stimulation [2]",Kd [3],Substance
0.5 nM,,,,,1 + 1 IL-17#134 crossed TNFa (#22) (bispecific antibody)
1.11 nM,,,,,2 + 2 IL-17#134 crossed TNFa mab (#16) (bispecific antibody)
0.24 nM,0.41 nM,3.59e-08 M,0.709 nM,,2 + 2 IL-17#136 scFab TNFa mab (#13) (bispecific antibody)
,,,,0.04 nM,2 + 2 IL-17#136 scFab TNFa mab (#13) (bispecific antibody; other documents disagree on this pair)
